This passage reports Kd results from BindingDB's records for doi:10.1016/j.bmc.2011.09.065 (2011).

The chains behind the UniProt entries cited, without tags or fusion partners.
UniProt P05067, whole entry: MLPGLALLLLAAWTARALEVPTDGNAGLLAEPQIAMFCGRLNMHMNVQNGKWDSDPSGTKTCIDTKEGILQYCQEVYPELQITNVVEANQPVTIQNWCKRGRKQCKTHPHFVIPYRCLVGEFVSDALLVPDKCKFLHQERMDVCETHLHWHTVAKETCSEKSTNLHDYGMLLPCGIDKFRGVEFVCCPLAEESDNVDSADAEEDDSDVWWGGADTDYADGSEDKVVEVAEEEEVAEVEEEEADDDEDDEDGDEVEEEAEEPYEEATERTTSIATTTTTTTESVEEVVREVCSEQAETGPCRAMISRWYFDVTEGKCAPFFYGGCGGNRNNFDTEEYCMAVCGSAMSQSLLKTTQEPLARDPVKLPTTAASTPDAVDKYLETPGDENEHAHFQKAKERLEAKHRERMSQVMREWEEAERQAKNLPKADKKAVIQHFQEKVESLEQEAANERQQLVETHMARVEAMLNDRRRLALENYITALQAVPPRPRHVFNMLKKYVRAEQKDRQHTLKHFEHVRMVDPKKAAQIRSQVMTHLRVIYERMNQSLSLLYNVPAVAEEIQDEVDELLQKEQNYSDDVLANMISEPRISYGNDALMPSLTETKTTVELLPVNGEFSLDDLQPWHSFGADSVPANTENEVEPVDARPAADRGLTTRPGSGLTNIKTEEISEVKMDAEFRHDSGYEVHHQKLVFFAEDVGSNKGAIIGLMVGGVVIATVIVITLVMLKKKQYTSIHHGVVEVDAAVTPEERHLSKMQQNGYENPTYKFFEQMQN

The target of this test is Amyloid-beta precursor protein (Homo sapiens, UniProt P05067). In words: Binding affinity to human amyloid beta (1 to 42) fibril by fluorescence intensity assay. In a few lines:
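Fibrils grown from human insulin (3 mg/mL, Tris-HCl 50 mM pH 3), E. coli-expressed human α-syn (3 mg/mL, pH 7.4) or Aβ(1–42) (0.5 mg/ml, 1% NH4OH). Fibril level taken as supernatant protein depletion. Fixed fibrils (3.5–11.35) titrated with ligand (DMSO stock diluted into 50 mM Tris-HCl pH 7.4). Plate-reader intensity read at each ligand's maximal excitation/emission wavelengths, dye blanks subtracted. Kd from single-site saturation fit.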

A word on the Kd: it is the free concentration of one partner at which half of the binding sites on the other are occupied at equilibrium, for simple one-to-one binding. A low value points to a tighter complex. As for `Cc1ccc2c(c1)sc(-c1ccc(N(C)C)cc1)[n+]2C` [Thioflavin T, 1], the affinity, expressed as Kd, was 384 nM.
